These results are taken from ChEMBL document CHEMBL4382291, “Aminopyrazole Carboxamide Bruton's Tyrosine Kinase Inhibitors. Irreversible to Reversible Covalent Reactive Group Tuning” (ACS Med Chem Lett, 2019).

Chains of the proteins cited; added tags and fusions are not shown.
UniProt P00533, whole entry: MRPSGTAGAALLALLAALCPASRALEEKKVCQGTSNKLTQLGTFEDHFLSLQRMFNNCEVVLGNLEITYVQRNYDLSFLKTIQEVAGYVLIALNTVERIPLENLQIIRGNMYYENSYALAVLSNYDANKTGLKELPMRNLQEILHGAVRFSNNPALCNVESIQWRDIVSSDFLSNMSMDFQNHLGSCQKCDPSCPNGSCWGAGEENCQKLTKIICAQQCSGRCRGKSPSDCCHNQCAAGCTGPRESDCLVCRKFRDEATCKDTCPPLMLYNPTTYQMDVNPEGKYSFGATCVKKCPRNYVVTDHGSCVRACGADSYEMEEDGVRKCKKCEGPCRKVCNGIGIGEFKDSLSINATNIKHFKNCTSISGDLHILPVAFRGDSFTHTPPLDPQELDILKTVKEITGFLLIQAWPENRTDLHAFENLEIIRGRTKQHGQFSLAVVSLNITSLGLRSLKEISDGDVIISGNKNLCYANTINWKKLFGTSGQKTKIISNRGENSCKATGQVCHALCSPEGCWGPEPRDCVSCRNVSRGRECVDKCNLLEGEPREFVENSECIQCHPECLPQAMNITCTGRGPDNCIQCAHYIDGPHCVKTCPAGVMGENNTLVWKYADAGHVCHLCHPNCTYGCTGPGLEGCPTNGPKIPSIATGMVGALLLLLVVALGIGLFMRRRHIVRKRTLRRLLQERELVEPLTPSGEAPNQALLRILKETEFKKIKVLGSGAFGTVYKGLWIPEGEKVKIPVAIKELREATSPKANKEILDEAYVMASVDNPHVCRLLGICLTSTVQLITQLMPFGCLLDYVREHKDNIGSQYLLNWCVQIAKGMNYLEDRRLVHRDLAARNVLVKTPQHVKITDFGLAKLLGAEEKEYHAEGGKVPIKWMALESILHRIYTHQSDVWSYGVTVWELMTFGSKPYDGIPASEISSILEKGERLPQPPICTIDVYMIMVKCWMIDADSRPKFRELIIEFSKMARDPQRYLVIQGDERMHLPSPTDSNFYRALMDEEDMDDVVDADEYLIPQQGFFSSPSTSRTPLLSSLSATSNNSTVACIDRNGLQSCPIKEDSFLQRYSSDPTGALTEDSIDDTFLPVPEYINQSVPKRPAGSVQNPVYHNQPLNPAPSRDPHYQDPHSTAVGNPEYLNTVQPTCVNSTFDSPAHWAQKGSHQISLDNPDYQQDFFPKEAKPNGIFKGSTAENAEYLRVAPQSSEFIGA

The assay addresses Epidermal growth factor receptor (Homo sapiens, UniProt P00533).

In general, IC50 refers to the concentration that gives 50% inhibition. Lower therefore signals greater potency. Molecule `NC(=O)c1c(-c2ccc(Oc3ccc(F)cc3F)cc2)nn([C@@H]2CCCN(C(=O)/C=C/C(F)F)C2)c1N` came in with an IC50 of 274 nM.
